## Binding of CDR-mutated scFvs to a peptide of the spike HR2 region

Target: peptide PDVDLGDISGINAS, taken from heptad repeat 2 (HR2) of SARS-CoV-2 spike.

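In library AAYL51, one, two or three CDR residues were substituted; doubles and triples were drawn at random. The assay is AlphaSeq: two haploid yeast populations carry antibody and antigen on their surface. The frequency of each diploid, read from paired DNA barcodes, reflects how well the two displayed proteins bind. Read counts were normalised to the haploid input and turned into Kd by a linear fit to BCL2-family pairs of known affinity, for each replicate. Mating was done three times.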

Parent scFv Ab-91: VL joined to VH by a (GGGGS)3 linker. Changes lie in the heavy chain CDRs alone.
VL: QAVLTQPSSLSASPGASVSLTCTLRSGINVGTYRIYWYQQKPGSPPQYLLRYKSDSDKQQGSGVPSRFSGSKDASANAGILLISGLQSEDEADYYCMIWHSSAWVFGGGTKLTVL
VH: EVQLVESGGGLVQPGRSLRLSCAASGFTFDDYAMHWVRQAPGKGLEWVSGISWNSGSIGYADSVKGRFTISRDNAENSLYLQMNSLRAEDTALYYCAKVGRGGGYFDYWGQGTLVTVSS

Changes read parent residue, position, new residue, counted from the first residue of the VH shown.
Affinities are written as log10 Kd with Kd in nM; a lower number is a better binder.
Averages over replicates are reported, and they cover detected replicates only.
An entry "n.d." has no value in the source: the pair was not observed among the diploids in that replicate. This suggests poor binding but is not conclusive.
Nonspecific signal, from three strains lacking the peptide, appeared in 21% of pairings of library AAYL51, centred on 4.54 (5% of these signals below 3.26); values are not corrected for it. The control count says in how many pairings with the empty strains this scFv gave a signal, with their mean in brackets.

changes | log10 Kd (nM) by replicate | log10 Kd (nM), mean | control signals
S57V I58V Y105P | 4.75 / n.d. / n.d. | 4.75 | 2 of 9 (3.74)
G56M Y60E G104S | n.d. / n.d. / n.d. | n.d. | 0 of 9
D30G G59Q Y60L | 4.49 / 5.56 / n.d. | 5.03 | 0 of 9
T28H H35I | 5.19 / 5.23 / n.d. | 5.21 | 2 of 9 (4.14)
D30L M34V H35E | n.d. / n.d. / n.d. | n.d. | 0 of 9
T28Q S57Y G104E | 5.31 / 4.06 / n.d. | 4.68 | 1 of 9 (4.01)
G103P Y108M | n.d. / n.d. / n.d. | n.d. | 0 of 9
H35F G59M Y108S | 3.94 / 5.77 / n.d. | 4.85 | 2 of 9 (3.54)
Y32E H35K S52G | 3.77 / n.d. / 5.03 | 4.40 | 3 of 9 (4.38)
D30N H35S S57W | 4.57 / n.d. / 5.57 | 5.07 | 4 of 9 (4.35)
G26F D62I D107Y | n.d. / 4.66 / n.d. | 4.66 | 0 of 9
T28K M34Q D107H | n.d. / n.d. / n.d. | n.d. | 1 of 9 (2.54)
M34V I58M Y105I | 2.18 / 2.31 / 1.84 | 2.11 | 4 of 9 (5.50)
W53A N54Q Y105N | 0.70 / 0.84 / 0.23 | 0.59 | 2 of 9 (3.21)
D30K G59N V64G | n.d. / n.d. / n.d. | n.d. | 0 of 9
M34G G50R R101Q | 5.12 / 5.29 / n.d. | 5.20 | 2 of 9 (4.99)
S55F G59E F106G | n.d. / 4.30 / n.d. | 4.30 | 3 of 9 (4.53)
H35Y G56R | n.d. / n.d. / n.d. | n.d. | 1 of 9 (3.38)
S63M G100H R101W | n.d. / n.d. / n.d. | n.d. | 0 of 9
D30Q N54S G103K | n.d. / n.d. / n.d. | n.d. | 1 of 9 (2.77)
T28Y S52R R101V | 4.27 / 4.48 / n.d. | 4.37 | 5 of 9 (4.38)
S52P Y105T Y108L | 5.63 / n.d. / 5.01 | 5.32 | 1 of 9 (4.31)
N54P G59S A61K | n.d. / 4.43 / 2.85 | 3.64 | 1 of 9 (2.96)
F27I S57Y V99Q | 4.54 / 5.86 / n.d. | 5.20 | 4 of 9 (4.43)
A33E S63F G104F | 4.61 / 3.97 / n.d. | 4.29 | 3 of 9 (4.73)
F27A D62Y | 2.60 / n.d. / n.d. | 2.60 | 1 of 9 (2.77)
I51M S63H V99W | 4.64 / 5.17 / n.d. | 4.90 | 6 of 9 (4.29)
N54D S57L Y108N | 1.51 / 1.95 / 1.43 | 1.63 | 0 of 9
V99L | n.d. / n.d. / n.d. | n.d. | 0 of 9
G100N R101D G104M | n.d. / 5.91 / 4.67 | 5.29 | 3 of 9 (3.83)
D62Q G104K F106V | n.d. / n.d. / n.d. | n.d. | 0 of 9
S57E S63M F106Q | 4.64 / n.d. / n.d. | 4.64 | 1 of 9 (2.57)
D30K K65P G103A | 2.08 / 2.01 / 1.85 | 1.98 | 4 of 9 (5.36)
Y60L A61S Y108W | 4.97 / 5.19 / 6.08 | 5.41 | 7 of 9 (5.31)
G50E N54V K65S | 4.45 / n.d. / 5.36 | 4.90 | 2 of 9 (5.11)
S55P S57V V99Q | 4.47 / n.d. / 3.17 | 3.82 | 0 of 9
A33Q A61L G102F | 4.14 / n.d. / n.d. | 4.14 | 2 of 9 (5.19)
A61C G102M Y105S | 4.03 / 5.62 / 4.01 | 4.55 | 2 of 9 (4.24)
M34Q S57A R101A | 4.85 / 4.56 / 5.22 | 4.88 | 5 of 9 (4.79)
N54V G104D F106M | n.d. / n.d. / n.d. | n.d. | 0 of 9
F27G M34G G102Y | 4.63 / n.d. / n.d. | 4.63 | 1 of 9 (4.12)
V99I | 1.53 / 1.84 / 1.32 | 1.56 | 3 of 9 (5.16)
T28P G50C Y60I | 5.69 / n.d. / 5.08 | 5.38 | 3 of 9 (4.39)
G26N G50Q Y105N | 4.27 / n.d. / n.d. | 4.27 | 2 of 9 (3.95)
F27V D31V S63K | 1.61 / 1.58 / 1.04 | 1.41 | 7 of 9 (4.53)

Values reported by Engelhart et al. 2022, doi:10.1038/s41597-022-01779-4 (FLAb copy).